Results as given in patent US20050079180A1, “Manipulatin of oocyte maturation and male germ cell survival” (priority 2003, published 2005).

Columns and labels:
[1] = system: seminiferous tubular cells; assay: cAMP production by seminiferous tubular cells; format: cell-based, rat; conditions: agent alone; FIG. 2D
From the text: FIGS. 2A-2D. Expression of LGR8 in male germ cells and INSL3 activation of the inhibitory G protein in seminiferous tubules. A) Northern blot analyses of LGR8 expression in testes of developing rats. B) In situ hybridization localization of LGR8 transcripts in the testis. The antisense LGR8 or INSL3 probe was used for the analysis of testes from six-week-old rats. Hybridization signals for LGR8 and INSL3 were present in seminiferous tubules and interstitial cells, respectively. C) Direct binding of biotinylated INSL3 to different testicular compartments. T: total binding; N: nonspecific binding; S: specific binding. LGR8: 293T cells expressing recombinant LGR8. Control: 293T cells not transfected with the LGR8 plasmid. […]
Seminiferous tubular cells were isolated by the method of Nagao (1989) In Vitro Cell Dev Biol 25:1088-1098, with modifications. […] After washing the cells three times, radioactivity in the pellets was determined.
To express recombinant LGR8, human 293T cells derived from embryonic kidney fibroblasts were maintained in Dulbecco's modified Eagle's medium/Ham's F-12 (DMEM/F12) supplemented with 10% FBS, 100 μg/ml penicillin, 100 μg/ml streptomycin, and 2 mM L-glutamine. […] Total cAMP in each well was measured in triplicate with primary cultured cells by a specific radioimmunoassay as previously described by Davoren and Hsuch (1985) Biol Reprod 33:37-52. […]

[2] = system: preovulatory follicles; assay: Oocyte maturation (GVBD) in cultured intact preovulatory follicles; format: cell-based, rat; conditions: FIG. 1F
Description: Briefly, female rats at 26 d of age were injected with 15 IU pregnant mare serum gonadotropin (PMSG). After 48-50 h, ovaries were dissected in Leivovitz's L-15 medium (Invitrogen Corp., Carlsbad, Calif.) supplemented with 5% fetal bovine serum and 100 μg/ml of penicillin and streptomycin. The CEOs were collected by puncturing the largest ovarian follicles in the L15 medium containing 0.25 mM of MIX within 20 min, washed twice in L15 medium without MIX and transfer to test medium. The CEO were cultured with or without different doses of rat INSL3 in L15 medium without both FBS and IBMX. For controls, the CEOs were cultured in L15 medium with IBMX. At the end of culture, the occurrence of germinal vesicle breakdown (GVBD) in oocyte was examined after removing cumulus cells surrounding CEO by a small-bore pipette under Hoffman modulation contrast microscopy (Nikon Inc., Tokyo, Japan). […] The vials were flushed at the start of the culture with O2/N2 (1/1) and cultured at 37C with gently shaking. After culture, individual CEO was dissected from each follicle to examine the occurrence of GVBD. For cAMP determination, 20 to 30 denuded oocytes were cultured with or without rat INSL3 (10 nM) in L15 medium containing 10 μM of cilostamide with or without 50 μM of forskolin. […]

[3] = system: INSL3 message; assay: Gonadotropin deprivation model: testis INSL3 mRNA (Northern blot); format: in vivo, rat; conditions: FIG. 4B
Description: Total RNA from rat testes were extracted using the RNeasy purification kits (Qiagen Inc. Chatsworth, Calif.) before Northern blotting. The rat ortholog for LGR8 was identified in the GenBank (accession number AC098990) and this sequence was used in reverse transcription-PCR to yield a LGR8 probe of 230 bp for Northern blotting and in situ analyses. For in situ hybridization studies, testes form 40 days old Sprague-Dawley rat testes were fixed at 4° C. for 6 h in 4% paraformaldehyde in PBS, followed by immersion in 0.5 M sucrose in PBS overnight. Cryostat sections (7 μm thick) were mounted on microscope slides coated with poly-L-lysine (Sigma Chemical Co., St. Louis, Mo.) and stored at −80C. until analyzed. The hybridization procedure was essentially the same as described by Leo et al. (1999) Endocrinology 140:5469-5477. In brief, sections were pretreated serially with 0.2 M HCl, 2×SSC, pronase E (0.125 mg/ml), 4% paraformaldehyde, acetic anhydride in triethanolamine and dehydrated in ascending grades of ethanol. […]
Male Sprague-Dawley rats at 28 days of age were treated subcutaneously with GnRH antagonist (250 μg/kg/day) to suppress pituitary gonadotropin secretion. […] Animals were killed 5 days after initial treatment and organ weight determined. […]

[4] = system: oocytes of preovulatory follicles; assay: In vivo oocyte maturation after intrabursal injection in PMSG-primed rats; set-up: species or system rat; conditions: 8 h after intrabursal injection, FIG. 3C
Description: To study the effect of INSL3 on oocyte maturation in vivo, intrabursal injection was performed (Vaknin et al. PMID: 11133687). Immature PMSG-treated rats were lightly anesthetized by ether, and one of the ovaries was exteriorized through a small lumbosacral incision. Rat INSL3, dissolved in 100 μl of PBS, was injected through a 30-gauge needle threaded into the ovarian bursa via the adjoining fat pad. After injection, the ovary was replaced into the abdominal cavity, and skin was clipped. Eight hours later, CEOs were collected by puncturing the largest ovarian follicles to examine the occurrence of oocyte GVBD.

[5] = system: INSL3 transcript; assay: Ovarian INSL3 transcript levels (RT-PCR) after hCG in PMSG-primed immature rats; format: in vivo, rat; conditions: ovulatory dose of hCG, immature rats primed with PMSG; FIG. 3A

## FSH: human follicle stimulating hormone from Organon
[1]
  cAMP production: stimulated cAMP production by Sertoli cells

## LH: luteinizing hormone secreted by the pituitary
[2]
  oocyte maturation: induced oocyte maturation in a dose-dependent manner

## hCG: an agonist of LH; from A.P.L, Ayerst Laboratories
[3]
  testis INSL3 message levels: increased INSL3 expression
[4]
  oocyte maturation (germinal vesicle breakdown in preovulatory follicles): induced oocyte maturation
[5]
  ovarian INSL3 transcript levels: increased at 1.5 h after treatment
